From patent publication US12653798B2, “Fixed combination medicine for the control and management of neuropathic pain” (LABORATORIOS SILANES S.A. DE C.V., priority 2020, dated 2026)

Test: Dissolution profile tests
Assay type: physicochemical

- % dissolved (t 0 min): 0.00%
- % dissolved (t 5 min): 91.75%
- % dissolved (t 10 min): 95.88%
- % dissolved (t 15 min): 97.08%
- % dissolved (t 30 min): 97.56%
- % dissolved (t 45 min): 97.84%
- % dissolved (t 60 min): 98.54%
Substance: thiamine mononitrate
